Values of other authors in PMC7304070 (Journal of the American Chemical Society, 2020).

Tested on: cells
Conditions: linear peptide; cited from earlier work

## pDI: linear peptide LTFEHYWAQLTS binding MDM2
  activity in cells: negligible activity in cells
